From patent publication US20230256017A1, “METHODS OF MAKING CHIMERIC ANTIGEN RECEPTOR-EXPRESSING CELLS” (Novartis AG, priority 2020, published 2023)

Columns and labels:
T cells [1] = assay: T cell expansion with cytokines after TCR stimulation (cell surface staining); format: cell-based; conditions: αCD3/αCD28 beads plus indicated cytokine
Method: Previously frozen T cells were thawed and contacted with αCD3/αCD28 dynal beads (cell to bead ratio of 1 to 3) in the presence of indicated cytokines at day 0. From day 3, twice more T cell growth media (RPMI1640, 10% FBS, 2 mM L-glutamin, 100 µM non-essential amino acids, 1 mM sodium pyruvate, 10 mM Hepes, 55 µM β-mercaptoethanol, 10% FBS, and 100 U/ml of penicillin-streptomycin) was added to the plate with indicated cytokines (without cytokine, rhIL2 (50 IU/ml, Novartis), IL6 (10 ng/ml, R&D systems), IL7 (10 ng/ml, Peprotech), IL15 (10 ng/ml, Peprotech), and IL21 (10 ng/ml, Peprotech)) at day 3, 5, 6, 9, 12, 15, and 18. Cells treated without cytokine, IL6, or IL21 were cultured until day 18 and cells treated with IL2, IL7, or IL15 were cultured until day 25.
Cells were harvested at indicated time points and then stained with live/dead dye (eFluro780, eBioscience), CD3 (BioLegend, clone#: OKT3), CD4 (BioLegend, clone#: OKT4), CD8 (BD Bioscience, clone#: RPA-T8), CD45RO (BioLegend, clone#: UCHL1), CCR7 (BioLegend, clone#: G043H7), CD27 (BD Horizon, clone#: L128), CD127 (BioLegend, clone#: A019D5), CD57 (BioLegend, clone#: HCD57), CD126 (BioLegend, clon#: UV4), and CD130 (R&D Systems, clone#: 28126) antibodies. The cells were acquired by FACS Fortessa and then FlowJo program was used for data analysis.

T cells [2] = assay: Cytokine process: T cell differentiation status and CAR transduction by flow cytometry; format: cell-based; conditions: purified T cells incubated with cytokine, no other activation stimulus
Method: After obtaining an apheresis within 24 hours of collection, T cells were purified and the purity of the T-cells obtained was assessed by flow cytometry. The T cells were frozen and placed in the liquid nitrogen until required for use.
IL-7 and IL-15 were prepared at 1,000 folds of the final concentration required. IL-2 was prepared by a 10-fold dilution in media.
At the time of plating, the cells were transduced with a lentiviral vector with a multiplicity of infection (MOI) of 1. The specific volume of vector to be transduced was calculated based on the multiplicity of infection (MOI) and concentration (titer) of the vector lot in use. The titer and the MOI were measured based on primary T cell lines.
In the conditions where cytokines alone were utilized for stimulation, the cells were resuspended post wash at a concentration of 1E7/ml and added to a conical tube that already contained the cytokines depending on the condition (Table 19). […]
On the following day the cells were harvested, the concentration and viability of the cells was noted. Their function was measured using a cytotoxicity and proliferation (EDU) incorporation assay. […]
The cells were immunophenotyped for T cell differentiation status and transduction of the CAR was assessed using flow cytometry. […] After the incubation, the cells were washed twice and fixed prior to being analyzed on the BD fortessa.

| Substance | T cell expansion (T cells [1]) | maintenance of self-renewing T cells (CD45RO-CCR7+) (T cells [2]) |
| --- | --- | --- |
| IL2: cytokine present during activation of T cells with αCD3αCD28 beads | enhanced T cell expansion | – |
| IL-2: cytokine used in T cell culture | – | maintained self-renewing T cells in vitro |
